One assay addresses Bcl-xL/Bim (Homo sapiens, UniProt Q07817). Description: Bcl-xL/Bim ELISA (GST-Bcl-xL binding to biotinylated Bim BH3 peptide).
In another assay the target is Mcl-1/Bim (Homo sapiens, UniProt Q07820). Description: Mcl-1/Bim ELISA (GST-Mcl-1 binding to biotinylated Bim BH3 peptide). The conditions noted are these: from Mcl-1/Bim and Bcl-xL/Bim ELISA.
For assay [1], the system named is cultured human cancer cells. The assay can be described thus: Induction of apoptosis in cultured human cancer cells. The conditions noted are these: intact cell studies.
In assay [2] the test system is human breast cancer MDA-MB-468 cells. Description: Western blotting of MDA-MB-468 cells treated with marinopyrrole derivatives (Mcl-1, Bim, caspase 3). The conditions noted are these: 10 μM for 16 h.

Amino acid sequences for entries named in this document (tags omitted).
UniProt Q07817, whole entry: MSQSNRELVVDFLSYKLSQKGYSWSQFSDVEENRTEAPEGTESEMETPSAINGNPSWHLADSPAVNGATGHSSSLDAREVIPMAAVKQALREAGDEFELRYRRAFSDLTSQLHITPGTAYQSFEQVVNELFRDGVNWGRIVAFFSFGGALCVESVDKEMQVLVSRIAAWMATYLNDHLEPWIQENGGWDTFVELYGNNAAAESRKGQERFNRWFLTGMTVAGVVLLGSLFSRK
UniProt Q07820, whole entry: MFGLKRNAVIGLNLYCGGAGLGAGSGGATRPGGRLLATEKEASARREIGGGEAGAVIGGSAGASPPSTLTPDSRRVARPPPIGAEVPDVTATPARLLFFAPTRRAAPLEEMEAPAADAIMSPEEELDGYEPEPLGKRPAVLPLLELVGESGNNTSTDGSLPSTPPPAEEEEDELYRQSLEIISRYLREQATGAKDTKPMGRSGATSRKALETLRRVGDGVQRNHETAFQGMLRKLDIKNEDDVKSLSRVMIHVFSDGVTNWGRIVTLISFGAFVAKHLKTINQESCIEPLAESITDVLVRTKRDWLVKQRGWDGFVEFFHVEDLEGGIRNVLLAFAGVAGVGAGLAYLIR

Six compounds from patent publication US10358454B2, “Marinopyrrole derivatives and methods of making and using same” (H. LEE MOFFITT CANCER CENTER AND RESEARCH INSTITUTE, INC., priority 2014, dated 2019) can be followed below.

Take `O=C(c1ccccc1O)c1[nH]c(Cl)c(Cl)c1-n1c(C(=O)c2ccc(Cl)cc2O)cc(Cl)c1Cl`: at Bcl-xL/Bim, the “activity against Bcl-xL/Bim in words” value is reported as “slight increase in potency”. For the same compound, the “selectivity profile Mcl-1 vs Bcl-xL in words” value on Mcl-1/Bim was “dual Mcl-1 and BclxL antagonists”. Also, the induction of apoptosis result in assay [1] is reported as “induced apoptosis”. As for `CCOC(=O)c1[nH]c(Cl)c(Cl)c1-n1c(C(=O)c2ccccc2O)cc(Cl)c1Cl`, the “selectivity profile Mcl-1 vs Bcl-xL in words” value on Mcl-1/Bim is listed as “high selectivity for Bcl-xL/Bim over Mcl-/Bim”. `O=C(c1ccccc1O)c1[nH]c(Cl)c(Cl)c1-n1c(C(=O)c2ccc(F)cc2O)cc(Cl)c1Cl`: in assay [1], the induction of apoptosis result is given as “induced apoptosis”.

As to `O=C(c1ccccc1O)c1[nH]c(Cl)c(Cl)c1-n1c(C(=O)c2c(O)cccc2F)cc(Cl)c1Cl`, in assay [1], the induction of apoptosis result is on record as “induced apoptosis”. In the case of `O=C(c1ccccc1O)c1[nH]c(Cl)c(Cl)c1-n1c(C(=O)c2ccccc2O)cc(Cl)c1Cl` (racemic) [(±)-1, (±)-marinopyrrole A], the “effect on levels of Mcl-1 and Bim and cleavage of caspase 3” value in assay [2] is “able to decrease Mcl-1 and Bim and to cleave caspas 3”. Consider `O=C(c1ccccc1O)c1[nH]c(Cl)c(Cl)c1-n1c(C(=O)c2cc(F)ccc2O)cc(Cl)c1Cl`, for which the “selectivity profile Mcl-1 vs Bcl-xL in words” value on Mcl-1/Bim was “dual Mcl-1 and BclxL antagonists”. Further, the induction of apoptosis entry in assay [1] is on record as “induced apoptosis”.
